Experimental data: PubChem BioAssay (Tox21)
The entries are a selection whose mix differs from that of the whole data set. Records with an inconclusive call do not appear. Active and inactive are the calls of the source. Unless noted, calls come from the whole dose curve; as a rule, active = well fitted curve in the direction sought with a large enough effect in the repeat runs; inconclusive = weak or mixed curves; inactive = no such curve, though single readings can be large; an effect the other way counts as inactive or inconclusive.

Amino acid sequences for entries named in this document (tags omitted).
UniProt P06401, whole entry: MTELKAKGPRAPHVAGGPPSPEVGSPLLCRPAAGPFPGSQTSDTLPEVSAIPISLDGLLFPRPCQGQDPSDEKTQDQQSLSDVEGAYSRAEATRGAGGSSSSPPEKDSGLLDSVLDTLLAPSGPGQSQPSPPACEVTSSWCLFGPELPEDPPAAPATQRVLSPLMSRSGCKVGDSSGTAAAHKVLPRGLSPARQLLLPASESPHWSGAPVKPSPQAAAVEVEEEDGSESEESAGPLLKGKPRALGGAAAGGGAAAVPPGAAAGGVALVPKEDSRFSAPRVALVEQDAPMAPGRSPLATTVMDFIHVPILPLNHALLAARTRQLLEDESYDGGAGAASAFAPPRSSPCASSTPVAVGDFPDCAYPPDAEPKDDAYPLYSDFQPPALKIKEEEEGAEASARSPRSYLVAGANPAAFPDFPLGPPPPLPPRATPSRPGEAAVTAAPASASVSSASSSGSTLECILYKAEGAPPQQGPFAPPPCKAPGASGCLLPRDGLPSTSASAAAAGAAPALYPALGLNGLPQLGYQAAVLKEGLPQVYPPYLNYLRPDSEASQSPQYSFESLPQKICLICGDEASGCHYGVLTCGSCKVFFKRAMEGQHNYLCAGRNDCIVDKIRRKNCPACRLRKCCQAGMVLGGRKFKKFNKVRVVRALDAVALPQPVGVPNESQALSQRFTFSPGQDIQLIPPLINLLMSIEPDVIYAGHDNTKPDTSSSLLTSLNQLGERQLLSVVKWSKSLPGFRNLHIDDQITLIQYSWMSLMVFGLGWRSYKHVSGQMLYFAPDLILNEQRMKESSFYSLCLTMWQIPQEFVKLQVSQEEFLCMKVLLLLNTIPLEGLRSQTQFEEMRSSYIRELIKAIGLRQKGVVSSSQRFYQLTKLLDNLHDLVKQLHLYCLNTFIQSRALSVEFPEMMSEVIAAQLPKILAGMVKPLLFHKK

Columns and labels:
[1] = qHTS assay to identify small molecule antagonists of the estrogen related receptor signaling pathway with the pleiotropic PPARgamma coactivator (PGC) from Tox21 10K library (AID 1224841; call rule not given here; note: actives are mostly falling curves and most rising ones were filed inactive; nearly all actives have a fitted effect of over 50% in size); settings: PGC/ERR reporter cell line, ONE-Glo luciferase, 18 h
[2] = qHTS assay to identify small molecule antagonists of the estrogen related receptor (ERR) signaling pathway from Tox21 library (AID 1224848); settings: ERR reporter cell line, luciferase antagonist mode, 18 h; note: nearly all actives have a fitted effect of over 50% in size
In short: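 Cells: ERR line, 2,000/well; 6 h preincubation 37 C/5% CO2. Cpd in DMSO via pin tool; 18 h, 37 C. ONE-Glo, 30 min RT, luminescence.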

[3] = qHTS RealTime-Glo MT Cell Viability Assay in HepG2 cells - 24 hour (AID 1224867); note: nearly all actives have a fitted effect of over 50% in size
In short: (§1)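 HepG2 cells were seeded at 600 cells/well together with NanoLuc luciferase and a cell-permeant prosubstrate, preincubated 5 h at 37 C/5% CO2, then pin-dosed with compounds in DMSO. Nonlytic luminescence from viable cells was read at each time point.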

[4] = qHTS RealTime-Glo MT Cell Viability Assay in HEK293 cells - 32 hour (AID 1224868); note: nearly all actives have a fitted effect of over 50% in size
In short: (§2)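 HEK293 cells were seeded at 600 cells/well together with NanoLuc luciferase and cell-permeant prosubstrate, preincubated 5 h at 37 C/5% CO2, then given compound in DMSO by pintool. Luminescence from viable-cell prosubstrate reduction was read repeatedly over 40 h.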

[5] = qHTS RealTime-Glo MT Cell Viability Assay in HepG2 cells - 40 hour (AID 1224870); settings: RealTime-Glo luminescence; note: nearly all actives have a fitted effect of over 50% in size
In short: (§3)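 HepG2 cells mixed with RealTime-Glo MT reagents (NanoLuc plus cell-permeant prosubstrate) were seeded at 600 cells/well, incubated 5 h at 37 C/5% CO2, then pinned with compounds in DMSO; nonlytic luminescence tracked viability during 40 h treatment.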

[6] = A CellTox Green Cytotoxicity Assay to monitor cytotoxicity in HEK293 cells - 40 hour (AID 1224871); settings: CellTox Green fluorescence; note: nearly all actives have a fitted effect of over 45% in size
In short: (§4)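 Seeding of HEK293 cells together with cytotoxicity dye preceded a 5 h incubation at 37 C/5% CO2. Test compounds in DMSO were then added and fluorescence monitored across 40 h.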

[7] = qHTS RealTime-Glo MT Cell Viability Assay in HEK293 cells - 16 hour (AID 1224872); note: nearly all actives have a fitted effect of over 50% in size
In short: as §2

[8] = qHTS RealTime-Glo MT Cell Viability Assay in HepG2 cells - 8 hour (AID 1224873); note: nearly all actives have a fitted effect of over 55% in size
In short: as §3

[9] = qHTS RealTime-Glo MT Cell Viability Assay in HEK293 cells - 40 hour (AID 1224874); settings: RealTime-Glo luminescence; note: nearly all actives have a fitted effect of over 50% in size
In short: (§5)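 Tox21 screen in HEK293 using RealTime-Glo MT chemistry, with cells and reagent co-dispensed. Luminescence proportional to viable cell number was captured at intervals during 40 h compound exposure at 37 C.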

[10] = A CellTox Green Cytotoxicity Assay to monitor cytotoxicity in HEK293 cells - 24 hour (AID 1224875); settings: CellTox Green fluorescence; note: nearly all actives have a fitted effect of over 45% in size
In short: as §4

[11] = A CellTox Green Cytotoxicity Assay to monitor cytotoxicity in HepG2 cells - 16 hour (AID 1224876); settings: CellTox Green fluorescence; note: nearly all actives have a fitted effect of over 45% in size
In short: (§6)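 Nonlytic assay: viable cells exclude the dye, so fluorescence scales with cell death. HepG2 at 600 cells/well, compounds added after 5 h, signal read across 40 h.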

[12] = qHTS RealTime-Glo MT Cell Viability Assay in HepG2 cells - 32 hour (AID 1224877); note: nearly all actives have a fitted effect of over 55% in size
In short: as §1

[13] = A CellTox Green Cytotoxicity Assay to monitor cytotoxicity in HepG2 cells - 24 hour (AID 1224878); settings: CellTox Green fluorescence; note: nearly all actives have a fitted effect of over 45% in size
In short: as §6

[14] = A CellTox Green Cytotoxicity Assay to monitor cytotoxicity in HepG2 cells - 40 hour (AID 1224879); note: nearly all actives have a fitted effect of over 40% in size
In short: as §6

[15] = A CellTox Green Cytotoxicity Assay to monitor cytotoxicity in HEK293 cells - 32 hour (AID 1224881); settings: CellTox Green fluorescence; note: nearly all actives have a fitted effect of over 40% in size
In short: as §4

[16] = A CellTox Green Cytotoxicity Assay to monitor cytotoxicity in HepG2 cells - 32 hour (AID 1224883); settings: CellTox Green fluorescence; note: nearly all actives have a fitted effect of over 50% in size
In short: as §6

[17] = A CellTox Green Cytotoxicity Assay to monitor cytotoxicity in HEK293 cells - 8 hour (AID 1224884); note: nearly all actives have a fitted effect of over 35% in size
In short: as §4

[18] = qHTS RealTime-Glo MT Cell Viability Assay in HepG2 cells - 16 hour (AID 1224885); note: nearly all actives have a fitted effect of over 50% in size
In short: as §1

[19] = qHTS RealTime-Glo MT Cell Viability Assay in HEK293 cells - 24 hour (AID 1224886); settings: RealTime-Glo luminescence; note: nearly all actives have a fitted effect of over 50% in size
In short: as §2

[20] = qHTS RealTime-Glo MT Cell Viability Assay in HEK293 cells - 8 hour (AID 1224887); settings: RealTime-Glo luminescence; note: nearly all actives have a fitted effect of over 50% in size
In short: as §5

[21] = A CellTox Green Cytotoxicity Assay to monitor cytotoxicity in HEK293 cells - 16 hour (AID 1224888); settings: CellTox Green fluorescence; note: nearly all actives have a fitted effect of over 35% in size
In short: as §4

[22] = A CellTox Green Cytotoxicity Assay to monitor cytotoxicity in HepG2 cells - 8 hour (AID 1224890); settings: CellTox Green fluorescence; note: nearly all actives have a fitted effect of over 45% in size
In short: as §6

[23] = qHTS assay to identify small molecule antagonists of the estrogen receptor alpha (ER-alpha) signaling pathway using the BG1 cell line in the presence of 0.1 nM 17-beta-estradiol - cell viability counter screen (AID 1259241); settings: VM7Luc4E2 (BG1) viability, CellTiter-Fluor protease, 22 h; 0.1 nM estradiol agonist added; note: nearly all actives have a fitted effect of over 40% in size
In short: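 VM7Luc4E2 cells (endogenous ER-alpha, 4×ERE-luciferase), hormone-starved 5 days in charcoal-stripped FBS, were treated with compounds plus 0.1 nM 17beta-estradiol for 22 hr at 37C; viability read in same wells as CellTiter-Fluor live-cell protease fluorescence.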

[24] = qHTS assay to identify small molecule antagonists of the androgen receptor (AR) signaling pathway using the MDA cell line in the presence of 0.5 nM R1881 - cell viability counter screen (AID 1259242); note: nearly all actives have a fitted effect of over 45% in size
In short: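 R1881 at 0.5 nM final stimulated MDA-kb2 cells during 16 hr compound treatment at 37C. Cytotoxicity read: CellTiter-Fluor fluorescence after 30 min.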

[25] = qHTS assay to identify small molecule antagonists of the sonic hedgehog signaling (Shh) pathway - cell viability counter screen (AID 1259367); settings: NIH/3T3 Gli1-Luc viability, CellTiter-Fluor, 24 h; note: nearly all actives have a fitted effect of over 55% in size
In short: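 NIH/3T3-derived Gli1-Luc reporter cells (2,000 per well) rested 4 hr at 37 C, then received DMSO compounds plus conditioned medium. After 23 hr of treatment, CellTiter-Fluor was added for 1 hr at 37C and fluorescence read.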

[26] = qHTS assay to identify small molecule agonists of the androgen receptor (AR) signaling pathway in the presence of an antagonist - cell viability counter screen (AID 1259379); settings: MDA-kb2 viability, CellTiter-Fluor, 16 h; note: nearly all actives have a fitted effect of over 25% in size
In short: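 A CellTiter-Fluor read-out measured viability of MDA-kb2 reporter cells (MMTV promoter with AR and GR response elements). Treatment: nilutamide 3.0uM final with compounds at 15 concentrations, 16 hr, 37C, 0% CO2.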

[27] = qHTS assay to identify small molecule agonists of the estrogen receptor beta (ER-beta) signaling pathway - cell viability counter screen (AID 1259380); settings: ER-beta-bla HEK293T viability, CellTiter-Glo luminescence, 16 h; note: nearly all actives have a fitted effect of over 30% in size
In short: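 Cells used were ER-beta-UAS-bla HEK293T in medium with 2% charcoal-stripped FBS. They were treated for 16 hr at 37C. Viability came from CellTiter-Glo luminescence.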

[28] = qHTS assay to identify small molecule antagonists of the estrogen receptor beta (ER-beta) signaling pathway - cell viability counter screen (AID 1259382); settings: ER-beta-UAS-bla HEK293T viability, CellTiter-Glo luminescence, 16 h; note: nearly all actives have a fitted effect of over 55% in size
In short: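 Agonist-stimulated (1nM E2) ER-beta-UAS-bla HEK293T cells are incubated with library compounds for 16 hr at 37C. Cell viability is then assessed in the reporter-assay wells by adding CellTiter-Glo and reading luminescence after 30 min.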

[29] = qHTS assay to identify small molecule agonists of the estrogen receptor alpha (ER-alpha) signaling pathway in the presence of an antagonist - cell viability counter screen (AID 1259386);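 note: cells exposed to compounds for 22 h at 37 °C before the viability read; nearly all actives have a fitted effect of over 30% in size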
In short: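 ICI-182,780 at 10.0nM final accompanies the compound titration (15 concentrations, 22hr, 37C) on VM7Luc4E2 cells. The CellTiter-Fluor fluorescence readout runs in the same wells as the luciferase assay.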

[30] = target: Progesterone receptor (Homo sapiens) (UniProt P06401); assay: qHTS assay to identify small molecule antagonists of the progesterone receptor (PR) signaling pathway (AID 1346795; active = well fitted inhibition curve with a large enough effect in the signal ratio in the repeat runs, not every such curve was filed as active; the % refers to the signal ratio); settings: PR-UAS-bla HEK293T, beta-lactamase FRET ratio, 16 h
In short: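 PR-UAS-bla HEK293T cells carrying a UAS-driven beta-lactamase reporter were plated in medium with 2% charcoal-stripped FBS and rested 6 hr at 37C. Compounds were added with 1 nM R5020 (final) for 16 hr, then FRET substrate loaded 2 hr at room temperature.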

[31] = Human pregnane X receptor (PXR) small molecule agonists, qHTS cell viability counter screen (AID 1346977); settings: PXR-Luc HepG2 viability, CellTiter-Fluor, 24 h; note: nearly all actives have a fitted effect of over 50% in size
In short: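 PXR-Luc HepG2 cells in medium with 5% charcoal-stripped FBS were pre-incubated 5hr, then exposed to compounds for 24hr at 37C. Viability was read in the same wells by CellTiter-Fluor fluorescence, reagent added after 23hr with a 1hr incubation.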

[32] = Caspase-3/7 induction in CHO-K1 cells by small molecules, qHTS cell viability counter screen (AID 1346979); note: nearly all actives have a fitted effect of over 35% in size
In short: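 Wild-type CHO-K1 cells were seeded at 1,500 per well, rested 5hr at 37 C, then exposed to compounds in DMSO. After 16hr, CellTiter-Fluor reagent was added and fluorescence read 1hr later as the viability measure.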

[33] = Caspase-3/7 induction in HepG2 cells by small molecules, qHTS cell viability counter screen (AID 1346981); settings: CellTiter-Fluor fluorescence, 17 h; note: nearly all actives have a fitted effect of over 30% in size
In short: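 Multiplexed with the caspase-3/7 assay: HepG2 cells, 16 hr compound treatment, CellTiter-Fluor viability detection by fluorescence.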

Measured: Potency
Potency is the fitted concentration of half-maximal effect.

N#CSc1ccc([N+](=O)[O-])cc1[N+](=O)[O-]
active: [1] 48.6 µM | [2] 27.3 µM | [3] 15.5 µM | [4] 17.4 µM | [5] 15.5 µM | [6] 19.5 µM | [7] 13.8 µM | [8] 17.4 µM | [9] 15.5 µM | [10] 38.9 µM | [11] 19.5 µM | [12] 13.8 µM | [13] 15.5 µM | [14] 13.8 µM | [15] 24.5 µM | [16] 13.8 µM | [17] 43.6 µM | [18] 15.5 µM | [19] 15.5 µM | [20] 17.4 µM | [21] 38.9 µM | [22] 21.9 µM | [23] 54.5 µM | [24] 61.1 µM | [25] 24.3 µM | [26] 61.1 µM | [27] 21.7 µM | [28] 19.3 µM | [29] 61.1 µM | [30] 4.86 µM | [31] 19.3 µM | [32] 13.7 µM | [33] 61.1 µM
